Results from US20100209959A1, “TUMOUR-CELL-FIXING CELLS” (UNIVERSITE PIERRE ET MARIE CURIE-PARIS VI, priority 2007, published 2010).

System: MDR1 protein
Assay: Transfer of MDR1 protein from hospicells to OVCAR3 cells (flow cytometry)
Type: cell-based
Details: in the presence of the protein translation inhibitor
Procedure: In addition, the expression of the MDR1 protein by OVCAR3 cells, cultivated in the presence or in the absence of hospicells, was determined by flow cytometry.
The results obtained show the presence of the MDR1 protein by the OVCAR3 cells. Consequently, the transfer of MDR proteins between the hospicells and the tumour cells is possible.

With `C[C@@H]1C[C@@H]([C@H](O)CC2CC(=O)NC(=O)C2)C(=O)[C@@H](C)C1` [cycloheximidine A] the “transfer of MDR proteins between hospicells and tumour cells” value was “also takes place”.
